As a reminder, the Kd is a measure of binding affinity in units of concentration.

Amino acid sequences for entries named in this document (tags omitted). Residues count along the entry.
UniProt P12314, 16-288 limits assumed: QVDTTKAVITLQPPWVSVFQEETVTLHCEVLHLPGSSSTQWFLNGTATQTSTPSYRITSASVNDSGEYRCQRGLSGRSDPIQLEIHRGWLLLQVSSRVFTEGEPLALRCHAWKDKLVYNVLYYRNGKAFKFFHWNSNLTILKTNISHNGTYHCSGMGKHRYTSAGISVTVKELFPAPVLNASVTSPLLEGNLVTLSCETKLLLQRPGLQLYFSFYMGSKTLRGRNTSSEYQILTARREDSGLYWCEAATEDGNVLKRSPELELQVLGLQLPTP

Drawing on patent publication US20150239981A1, this text covers Kd for one substance.

This assay concerns the target FcγRI (human) (UniProt P12314). As to the kind of experiment: SPR Biacore T100, FcγRI captured by pentaHis antibody, antibody as analyte 0-100 nM. A general note: In SPR one partner is held on a chip, and binding of the other changes the refractive index at the surface.

With “IgG1 P329G (antibody not named, Tables 2A and 2B)”, the Kd is 6 nM.
